Reference: patent US20170304388A1, “NEW INDICATION OF CARDIOVASCULAR DRUGS FOR PREPARATION OF CANCER INHIBITION PHARMACEUTICAL COMPOSITION” (LAUNX BIOMEDICAL CO., LTD., priority 2014, published 2017)

System: cancer cell lines
Assay: Growth inhibitory effects on the panel of cancer cell lines

In the case of `C[C@@H](O)[C@H]1C(=O)N2C(C(=O)OCOC(=O)C(C)(C)C)=C(SC3CN(C4=NCCS4)C3)[C@H](C)[C@H]12` [Tebipenem pivoxil (L-084), Tebipenem pivoxil], the “Numbers of inhibitory effect on cancer cell line” value is reported as 0 and the “inhibition effect on different cancer cell lines (in words)” value is reported as “significant inhibition effect”.
